Reported melting point values for industrial, environmental and drug-like chemicals

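These are experimental values that the OPERA curators gathered from public databases to train and test their QSAR models. The files give a single number for a compound and property, which may rest on several reports. Method, purity and exact conditions of the single measurements are not given. A value may pool stereoisomers or salt forms, and the file does not say which form was measured. Unmarked limits or estimates from the upstream databases cannot be ruled out.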

The melting point is given in degrees Celsius. "n/a" marks a cell with nothing listed here.

structure (SMILES),name,melting point (°C)
CCOC(=O)c1c(N)sc(C)c1CC,ethyl 2-amino-4-ethyl-5-methylthiophene-3-carboxylate,46
O=C(O)c1cccc2c1C(=O)c1ccccc1C2=O,n/a,294
COc1ccc(COCC(=O)O)cc1,[(4-Methoxyphenyl)methoxy]acetic acid,42
CC(C)=NO[Si](C)(ON=C(C)C)ON=C(C)C,n/a,-5
Cl.Cl.O=C(OCCN1CCCCC1)C(c1ccccc1)N1CCCCC1 (configuration not stated),n/a,213
O=[N+]([O-])c1c(Cl)nc2ccccn12,"2-chloro-3-nitroimidazo[1,2-a]pyridine",171
COC(=O)c1cc(Cl)c(N)cc1OC,methyl 4-amino-5-chloro-2-methoxybenzoate,125
Cc1cccc(-c2nc(CC(=O)O)cs2)c1,"[2-(3-methylphenyl)-1,3-thiazol-4-yl]acetic acid",111
Cc1ccc(-c2nnc(Cl)c3ccccc23)cc1,1-chloro-4-(4-methylphenyl)phthalazine,146
NC(=O)COc1ccccc1C(=O)O,2-(2-amino-2-oxoethoxy)benzoic acid,200
Cc1ccc(C)c(-c2n[nH]c(=O)c3ccccc23)c1,"4-(2,5-Dimethylphenyl)phthalazin-1(2H)-one",217
N#Cc1cnoc1N,5-Aminoisoxazole-4-carbonitrile,144
CC(C)(C)c1ccc(CCC(=O)O)cc1,3-(4-tert-Butyl-phenyl)-propionic acid,106
Cc1nn(C)c(C)c1CC(=O)O,"(1,3,5-Trimethyl-1H-pyrazol-4-yl)acetic acid",224
CC(=O)c1ccc2c(c1)CC(=O)N2,5-ACETYLOXINDOLE,218
O=C(O)c1ccc(F)cc1S,4-Fluoro-2-sulfanylbenzoic acid,172
O=C(O)C(Cc1ccccc1)n1cnnn1 (configuration not stated),3-phenyl-2-(1H-tetrazol-1-yl)propanoic acid,163
COc1ccccc1N1C(=O)C=CC1=O,N-(2-Methoxyphenyl)maleimide,90.5
CC(=O)c1ccc(OCC(=O)Nc2ccccc2)cc1,"Acetamide, 2-(4-acetylphenoxy)-N-phenyl-",95
Nc1cc2c(cc1Cl)NC(=O)CO2,"7-Amino-6-chloro-2H-1,4-benzoxazin-3(4H)-one",228
NC(=O)C1COc2ccccc2O1 (configuration not stated),"2,3-dihydro-1,4-benzodioxine-2-carboxamide",142
Cc1ccc(C(=O)C(Br)CC(=O)O)cc1 (configuration not stated),3-Bromo-4-oxo-4-p-tolyl-butyric acid,117
NCC(c1ccccc1)c1c[nH]c2ccccc12 (configuration not stated),2-(1H-Indol-3-yl)-2-phenylethanamine,124
CCCCc1ccc(Cn2cncn2)cc1,"1-(4-Butylbenzyl)-1H-1,2,4-triazole",37.5
CCCCCCCCCCC(=O)CCCCC,Hexadecan-6-one,36.5
Nc1cccc(S(=O)(=O)Nc2ccccc2C(=O)O)c1,2-[(3-Aminobenzene-1-sulfonyl)amino]benzoic acid,199
CCOc1ccc(Br)cc1S(=O)(=O)Cl,5-bromo-2-ethoxy-benzenesulfonyl Chloride,110
NNC(=O)Cc1ccc(Cl)cc1,2-(4-Chlorophenyl)acetohydrazide,166
Cc1cc(C)c2c(-c3ccccc3)nc(=S)n-2[nH]1,"2,4-dimethyl-5-phenylimidazo[1,5-b]pyridazine-7-thiol",329
NC(NO)=C1C=CC(=O)C=C1,"4,N-Dihydroxy-benzamidine",154
C=C(C)C1CC=C(CO)CC1 (configuration not stated),4-Isopropenylcyclohex-1-en-1-ylmethanol,244
CC(=O)c1ccc(C)c(F)c1,3'-Fluoro-4'-methylacetophenone,32.5
BrCCC12CC3CC(CC(C3)C1)C2,1-(2-bromoethyl)adamantane,57
O=C(O)Cn1cncn1,"1,2,4-Triazole-1-acetic acid",201.5
O=C(O)CCNC(=O)c1cccs1,3-[(thien-2-ylcarbonyl)amino]propanoic acid,221
Nc1nc(-c2ccc3c(c2)OCCO3)cs1,"4-(2,3-Dihydro-1,4-benzodioxin-6-yl)-1,3-thiazol-2-amine",181
CC(=O)Oc1cc(C(=O)O)cc(OC(C)=O)c1OC(C)=O,"Benzoic acid, 3,4,5-tris(acetyloxy)-",164
Cc1ccc2cc(C(=O)O)c(C)nc2c1,"2,7-Dimethylquinoline-3-carboxylic acid",198
Clc1cccc(Cl)c1Oc1ccccc1,"2,6-Dichlorodiphenyl ether",39
Fc1cccc(-n2[nH]nnc2=S)c1,1-(3-fluorophenyl)-1H-tetrazole-5-thiol,137

The 6 lowest values of melting point among the entries above:

structure (SMILES)	name	melting point (°C)
CC(C)=NO[Si](C)(ON=C(C)C)ON=C(C)C	n/a	-5
CC(=O)c1ccc(C)c(F)c1	3'-Fluoro-4'-methylacetophenone	32.5
CCCCCCCCCCC(=O)CCCCC	Hexadecan-6-one	36.5
CCCCc1ccc(Cn2cncn2)cc1	1-(4-Butylbenzyl)-1H-1,2,4-triazole	37.5
Clc1cccc(Cl)c1Oc1ccccc1	2,6-Dichlorodiphenyl ether	39
COc1ccc(COCC(=O)O)cc1	[(4-Methoxyphenyl)methoxy]acetic acid	42

Data: OPERA 2.9 data sets, kmansouri/OPERA on GitHub.